Results taken from patent publication US11814364B2, “Pyridine N-oxide derivatives useful as factor XIa inhibitors” (Janssen Pharmaceutica NV, priority 2021, dated 2023).
Read-outs that look alike come from different tables or passages of the source. One block for each compound: values may come before it.

The chains behind the UniProt entries cited, without tags or fusion partners. Residues count along the entry.
UniProt P03952, 391-638 limits assumed: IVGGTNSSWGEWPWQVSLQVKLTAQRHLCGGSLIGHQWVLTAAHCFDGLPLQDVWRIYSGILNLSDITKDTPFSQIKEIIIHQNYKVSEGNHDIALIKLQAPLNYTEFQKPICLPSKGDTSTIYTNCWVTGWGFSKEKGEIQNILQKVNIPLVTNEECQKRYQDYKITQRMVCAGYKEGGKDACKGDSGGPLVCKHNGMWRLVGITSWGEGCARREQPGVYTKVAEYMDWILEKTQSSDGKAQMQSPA
UniProt P03952, 20-390 partner limits assumed: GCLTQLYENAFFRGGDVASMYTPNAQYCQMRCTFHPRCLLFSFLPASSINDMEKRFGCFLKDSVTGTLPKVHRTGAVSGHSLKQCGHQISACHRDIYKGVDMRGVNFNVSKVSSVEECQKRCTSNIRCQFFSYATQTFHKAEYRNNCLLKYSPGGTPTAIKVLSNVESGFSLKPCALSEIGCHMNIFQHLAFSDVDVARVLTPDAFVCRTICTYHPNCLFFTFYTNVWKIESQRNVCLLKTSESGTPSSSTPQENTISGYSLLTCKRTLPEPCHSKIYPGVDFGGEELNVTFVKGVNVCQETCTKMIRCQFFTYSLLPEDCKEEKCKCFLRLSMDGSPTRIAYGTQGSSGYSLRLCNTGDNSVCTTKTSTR
UniProt P03951, 388-625 limits assumed: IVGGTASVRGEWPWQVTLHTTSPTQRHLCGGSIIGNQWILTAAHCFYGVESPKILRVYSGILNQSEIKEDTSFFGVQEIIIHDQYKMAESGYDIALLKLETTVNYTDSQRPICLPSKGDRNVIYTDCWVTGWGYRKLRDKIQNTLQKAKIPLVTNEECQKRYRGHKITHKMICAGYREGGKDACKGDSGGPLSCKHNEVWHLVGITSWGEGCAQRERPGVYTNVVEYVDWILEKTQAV
UniProt P03951, 19-387 partner limits assumed: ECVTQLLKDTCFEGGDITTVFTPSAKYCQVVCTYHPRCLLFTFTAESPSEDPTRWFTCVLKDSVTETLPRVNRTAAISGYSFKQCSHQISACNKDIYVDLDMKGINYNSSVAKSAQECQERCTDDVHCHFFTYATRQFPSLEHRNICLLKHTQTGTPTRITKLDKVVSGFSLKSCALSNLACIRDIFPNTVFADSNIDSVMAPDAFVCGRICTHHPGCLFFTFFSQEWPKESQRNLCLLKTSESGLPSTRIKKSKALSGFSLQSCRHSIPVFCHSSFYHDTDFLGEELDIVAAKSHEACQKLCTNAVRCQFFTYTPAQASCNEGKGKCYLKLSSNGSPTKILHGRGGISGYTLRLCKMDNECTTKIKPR

Experiments:
human plasma kallikrein = human plasma kallikrein (Homo sapiens, UniProt P03952); experiment: Kallikrein inhibition FLINT assay with quenched AMC peptide substrate Z-Gly-Pro-Arg-AMC (end point EP or kinetic KIN reads); assay type: biochemical
Factor XIa = Factor XIa (Homo sapiens, UniProt P03951); experiment: Factor XIa inhibition FLINT assay with fluorophore-quencher peptide substrate 5Fam-[…]-K5Tamra (end point EP or kinetic KIN reads); assay type: biochemical; settings: read-out: FXIa (EP) IC50; end point read at 30 min
[1] = read-out: Kallikrein (KIN) IC50, kinetic reads at 5 min intervals over 30 min

SMILES: Cn1ncc(CC(c2ccc(-c3c(-n4cnnn4)ccc(Cl)c3F)c[n+]2[O-])n2cc(-c3ccnn3C(F)F)cn2)n1 (stereo not shown)
IC50 (human plasma kallikrein; [1]): 63 nM

SMILES: [O-][n+]1cc(-c2c(-n3cnnn3)ccc(Cl)c2F)ccc1C(Cc1cnn(-c2ccccc2)n1)n1cc(-c2ccnc(C(F)(F)F)c2)cn1 (stereo not shown)
IC50 (human plasma kallikrein; [1]): 213 nM

SMILES: [O-][n+]1cc(-c2c(-n3cnnn3)ccc(Cl)c2F)ccc1[C@@H](Cc1ccc(F)cc1)n1cc(-c2nn(C(F)F)nc2Cl)cn1
IC50 (human plasma kallikrein; [1]): 396 nM

SMILES: O=C(C1CC1CC(c1ccc(-c2c(-n3cnnn3)ccc(Cl)c2F)c[n+]1[O-])n1cc(-c2ccncc2)cn1)N1CCC2(CC2)C1 (stereo not shown)
IC50 (human plasma kallikrein; [1]): 690 nM

SMILES: [O-][n+]1cc(-c2c(-n3cnnn3)ccc(Cl)c2F)ccc1[C@@H](CCOC(F)F)n1cc(-c2nn(C(F)F)nc2F)cn1
IC50 (human plasma kallikrein; [1]): 36.2 nM

SMILES: [O-][n+]1cc(-c2c(-n3cnnn3)ccc(Cl)c2F)ccc1[C@@H](CC1CC1)n1cc(-c2cnn(C(F)F)n2)cn1
IC50 (human plasma kallikrein; [1]): 660 nM

SMILES: [O-][n+]1cc(-c2c(-n3cnnn3)ccc(Cl)c2F)ccc1[C@H](Cc1ccn(C(F)F)n1)n1cc(-c2ccnc(C(F)(F)F)c2)cn1
IC50 (human plasma kallikrein; [1]): 354 nM

SMILES: [O-][n+]1cc(-c2c(-n3cnnn3)ccc(Cl)c2F)ccc1[C@H](Cc1ccn(CC(F)(F)F)n1)n1cc(-c2ccnc(C(F)(F)F)c2)cn1
IC50 (human plasma kallikrein; [1]): 175 nM

SMILES: [O-][n+]1cc(-c2c(-n3cnnn3)ccc(Cl)c2F)ccc1[C@H](Cc1cnn(C(F)F)n1)n1cc(-c2ccnc(C(F)(F)F)c2)cn1
IC50 (human plasma kallikrein; [1]): 626 nM

SMILES: Cn1ncc(CC(c2ccc(-c3c(-n4cnnn4)ccc(Cl)c3F)c[n+]2[O-])n2cc(-c3ccnc(C(F)(F)F)c3)cn2)n1 (stereo not shown)
IC50 (human plasma kallikrein; [1]): 36.9 nM

SMILES: [2H]C([2H])(C[C@H](c1ccc(-c2c(-n3cc(C(F)(F)F)nn3)ccc(Cl)c2F)c[n+]1[O-])n1cc(-n2cnnc2C)cn1)OC(F)F
IC50 (human plasma kallikrein; [1]): 214 nM

SMILES: [O-][n+]1cc(-c2c(-n3cnnn3)ccc(Cl)c2F)ccc1C(Cc1cnn(-c2ccccc2)n1)n1cc(-c2ccnn2C(F)F)cn1 (stereo not shown)
IC50 (human plasma kallikrein; [1]): 179 nM

SMILES: NC1CN(C(=O)C2CC2CC(c2ccc(-c3c(-n4cnnn4)ccc(Cl)c3F)c[n+]2[O-])n2cc(-c3ccncc3)cn2)CC12CC2 (stereo not shown)
IC50 (human plasma kallikrein; [1]): 286 nM

SMILES: O=C(O)C1CN(C(=O)C2CC2CC(c2ccc(-c3c(-n4cnnn4)ccc(Cl)c3F)c[n+]2[O-])n2cc(-c3ccncc3)cn2)CC12CC2 (stereo not shown)
IC50 (human plasma kallikrein; [1]): 109 nM

SMILES: [O-][n+]1cc(-c2c(-n3cc(Cl)nn3)ccc(Cl)c2F)ccc1[C@@H](Cn1cccn1)n1cc(-c2cnn(C(F)F)n2)cn1
IC50 (human plasma kallikrein; [1]): 133 nM

SMILES: Nc1ccc(-c2cnn(C(Cc3ccccc3)c3ccc(-c4cc(Cl)ccc4-n4cnnn4)c[n+]3[O-])c2)c(F)n1 (stereo not shown)
IC50 (Factor XIa): 2.3 nM
IC50 (human plasma kallikrein; read-out: Kallikrein (EP) IC50, end point read at 30 min): 12.6 nM

SMILES: Cn1ncc(C[C@@H](c2ccc(-c3c(-n4cnnn4)ccc(Cl)c3F)c[n+]2[O-])n2cc(-c3ccnc(C(F)(F)F)c3)cn2)n1
IC50 (human plasma kallikrein; [1]): 464 nM

Further lines, results first:

IC50 (human plasma kallikrein; [1]): 24.7 nM
SMILES: COC(=O)Nc1ccc(-c2cnn([C@H](CC(C)OC)c3ccc(-c4c(-n5cnnn5)ccc(Cl)c4F)c[n+]3[O-])c2)cc1 (stereo partly shown)

IC50 (human plasma kallikrein; [1]): 36 nM
SMILES: COc1cc(C(Cc2ccn(C(F)F)n2)n2cc(-c3ccc(C(=O)O)c(F)c3)cn2)[n+]([O-])cc1-c1cc(Cl)ccc1C(C)=O (stereo not shown)

IC50 (human plasma kallikrein; [1]): 27.7 nM
SMILES: [O-][n+]1cc(-c2c(-n3cnnn3)ccc(Cl)c2F)ccc1[C@@H](Cc1ccc(F)cc1)n1cc(-c2cnn(C(F)F)n2)cn1

IC50 (human plasma kallikrein; [1]): 2.8 nM
SMILES: [O-][n+]1cc(-c2c(-n3cnnn3)ccc(Cl)c2F)ccc1[C@@H](Cc1ccn(CC(F)(F)F)n1)n1cc(-c2ccnc(C(F)(F)F)c2)cn1

IC50 (human plasma kallikrein; [1]): 4.4 nM
SMILES: Nc1ccc(-c2cnn(C(Cc3ccccc3)c3c(F)cc(-c4cc(Cl)ccc4-n4cnnn4)c[n+]3[O-])c2)c(F)n1 (stereo not shown)

IC50 (human plasma kallikrein; [1]): 35.4 nM
SMILES: Cn1ncc(C[C@H](c2ccc(-c3c(-n4cc(Cl)nn4)ccc(Cl)c3F)c[n+]2[O-])n2cc(-c3ccnc(C(F)(F)F)c3)cn2)n1

IC50 (human plasma kallikrein; [1]): 5.2 nM
SMILES: Cn1ncc(C[C@H](c2ccc(-c3c(-n4cnnn4)ccc(Cl)c3F)c[n+]2[O-])n2cc(-c3ccnc(C(F)(F)F)c3)cn2)n1

IC50 (human plasma kallikrein; [1]): 3.2 nM
SMILES: [O-][n+]1cc(-c2c(-n3cnnn3)ccc(Cl)c2F)ccc1[C@@H](Cc1ccn(C(F)F)n1)n1cc(-c2ccnc(C(F)(F)F)c2)cn1

IC50 (human plasma kallikrein; [1]): 30.2 nM
SMILES: CN(CC(c1ccc(-c2c(-n3cnnn3)ccc(Cl)c2F)c[n+]1[O-])n1cc(-c2cc[n+]([O-])cc2)cn1)C(=O)CCc1ccccc1 (single isomer, unassigned) [P349]

IC50 (human plasma kallikrein; [1]): 14.3 nM
SMILES: CN(CC(c1ccc(-c2c(-n3cnnn3)ccc(Cl)c2F)c[n+]1[O-])n1cc(-c2ccncc2)cn1)C(=O)CCc1ccccc1 (stereo not shown)
